Laboratory results published in publication PMC11966747, “Next Generation Risk Assessment of Acute Neurotoxicity from Organophosphate Exposures Using the In Vitro–In Silico Derived Dietary Comparator Ratio” (Environmental Science & Technology, 2025).

By UniProt entry, the sequences of proteins in these tests, tags left out. Residues count along the entry.
UniProt P22303, 32-617 isoform P22303-2 limits assumed: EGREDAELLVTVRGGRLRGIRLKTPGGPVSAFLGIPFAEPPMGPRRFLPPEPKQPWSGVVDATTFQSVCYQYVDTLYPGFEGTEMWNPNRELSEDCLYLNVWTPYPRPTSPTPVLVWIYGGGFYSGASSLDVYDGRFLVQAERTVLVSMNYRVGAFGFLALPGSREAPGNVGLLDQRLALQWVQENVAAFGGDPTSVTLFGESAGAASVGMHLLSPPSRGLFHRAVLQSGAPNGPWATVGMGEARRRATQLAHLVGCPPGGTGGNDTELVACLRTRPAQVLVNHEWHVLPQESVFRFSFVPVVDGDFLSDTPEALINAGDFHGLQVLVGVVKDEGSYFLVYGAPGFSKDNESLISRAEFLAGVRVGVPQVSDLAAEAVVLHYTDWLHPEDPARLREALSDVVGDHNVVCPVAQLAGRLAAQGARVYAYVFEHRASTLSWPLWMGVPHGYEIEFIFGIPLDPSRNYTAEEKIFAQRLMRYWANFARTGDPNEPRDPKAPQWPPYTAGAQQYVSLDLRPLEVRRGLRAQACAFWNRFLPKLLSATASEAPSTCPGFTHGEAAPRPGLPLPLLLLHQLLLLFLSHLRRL

Key:
erythrocyte AChE [1] = target: T1, erythrocyte AChE (Homo sapiens, UniProt P22303); test: biochemical; parameters: from tissue; host or cells: human whole peripheral blood (erythrocytes), K2EDTA anticoagulant
erythrocyte AChE [2] = target: T1, erythrocyte AChE; details: cited from earlier work

Row | Compound | IC50 (erythrocyte AChE [1]) [µM] | Reported erythrocyte AChE activity/inhibition (erythrocyte AChE [2]; 0.029 mg/kg BW (2 mg), first dose of repeated exposure study, 2 male volunteers, ref Rodnitzky et al. 1978) | Reported blood ChE activity (unclear if erythrocyte AChE or plasma BuChE) (erythrocyte AChE [2]; human, in vivo) | acceptable daily intake (ADI) for humans (erythrocyte AChE [2]; human, in vivo) [mg/kg BW]
1 | CCOP(=O)(OCC)OC(=CCl)c1ccc(Cl)cc1Cl [chlorfenvinphos] | 27.7 | – | – | –
2 | COP(=S)(OC)Oc1ccc([N+](=O)[O-])cc1 [methyl parathion] | – | No significant erythrocyte AChE | Significantly decreased | 0.003
